Measured values reported in ChEMBL document CHEMBL1138259, “Novel fluorinated derivatives of the broad-spectrum MMP inhibitors N-hydroxy-2(R)-[[(4-methoxyphenyl)sulfonyl](benzyl)- and (3-picolyl)-amino]-3-methyl-butanamide as potential tools for the molecular imaging of activated MMPs with PET” (J Med Chem, 2007).

Amino acid sequences for entries named in this document (tags omitted). A change or cut given only in a name is not applied to a line headed by its entry.
UniProt P22894: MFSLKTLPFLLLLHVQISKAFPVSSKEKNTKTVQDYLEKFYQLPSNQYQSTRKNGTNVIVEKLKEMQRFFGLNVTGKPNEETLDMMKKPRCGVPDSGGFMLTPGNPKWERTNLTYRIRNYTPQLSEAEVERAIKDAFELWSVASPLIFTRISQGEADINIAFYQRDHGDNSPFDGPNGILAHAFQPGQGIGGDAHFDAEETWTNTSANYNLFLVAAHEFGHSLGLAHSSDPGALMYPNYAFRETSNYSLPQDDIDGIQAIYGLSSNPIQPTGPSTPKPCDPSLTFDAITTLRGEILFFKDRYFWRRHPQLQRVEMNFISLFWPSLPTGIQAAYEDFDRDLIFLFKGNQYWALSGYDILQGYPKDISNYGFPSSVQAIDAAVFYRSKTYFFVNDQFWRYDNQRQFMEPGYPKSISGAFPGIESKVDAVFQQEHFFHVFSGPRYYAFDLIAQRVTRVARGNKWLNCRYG

Target: Neutrophil collagenase (Homo sapiens, UniProt P22894)
Assay: Inhibition of MMP8
Outline: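 Human active MMP (2 nM) preincubated with inhibitor (10 pM-1 mM) for 30 min at 37 °C in 50 mM Tris·HCl pH 7.5, 0.2 M NaCl, 5 mM CaCl₂, 20 µM ZnSO₄, 0.05% Brij 35. Fluorogenic Mca-Pro-Leu-Gly-Leu-Dpa-Ala-Arg-NH₂ substrate added (10 µL of 50 µM stock to 90 µL).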

- IC50: 2 nM
SMILES: COc1ccc(S(=O)(=O)N(Cc2cccnc2)[C@@H](C(=O)NO)C(C)C)cc1 [CGS-27023A]
